We go through 61 compounds from PubChem BioAssay AID686970 (National Center for Advancing Translational Sciences (NCATS), 2013).

The entries are a selection whose mix differs from that of the whole data set. Results filed as inconclusive are left out. Activity calls are given as the source filed them. The call rests on the fitted dose curve; in most records, active means well fitted cell-killing curve with a large enough effect; inconclusive means small, poorly fitted or top-dose-only effect, or effect the other way; inactive means flat fitted curve, though single readings scatter.

This test can be described thus: qHTS for induction of synthetic lethality in tumor cells producing 2HG: qHTS for the HT-1080-NT fibrosarcoma cell line.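 Further: NT is the 2HG producing partner of a matched IDH1 knockdown line; 0% = DMSO-treated cells and -100% = media-only wells without cells; nearly all actives have a fitted effect of over 55% in size.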 The conditions noted are these: HT-1080-NT fibrosarcoma viability, CellTiter-Glo ATP luminescence, 48 h; at 46.1 µM (top of the series) unless noted. (In general: qHTS replaces the single test concentration by a dilution series.)
Turning to `O=C(O)C1(Nc2ccccc2)CCN(Cc2ccccc2)CC1`, the activity, negative = less viability is inactive: 2.54%. In the case of `NN(c1ccccc1)C1CCN(CCc2ccccc2)CC1`, the activity, negative = less viability was inactive: 0.0808%. Regarding `CC(C)(C)OC(=O)N1CCC(Nc2ccccc2)CC1`, the activity, negative = less viability was inactive: 18.3%. Regarding `CCCOc1ccc(C(=O)NCC2(N(C)C)CCCCC2)cc1`, the activity, negative = less viability is inactive: -4.16%. For `CN1CCC(Nc2ccc(F)c(Cl)c2)CC1`, the activity, negative = less viability is inactive: -8.6%. For `CCOc1ncccc1C(=O)NCC1(N2CCOCC2)CCCCC1`, the activity, negative = less viability is inactive: 8.16%.

For `CN1CCC(Nc2ccc(Cl)cc2)CC1`, the activity, negative = less viability is inactive: -1.98%. Take `COc1cc(OC)cc(C(=O)NCC2(N3CCOCC3)CCCCC2)c1`: the activity, negative = less viability was inactive: 2.02%.

As to `COc1cccc(C(=O)N(c2cc(C)cc(C)c2)C2CCN(C(=O)OC(C)(C)C)CC2)c1`, the activity, negative = less viability was inactive: 10.7%. Take `CCC(CO)(C(=O)OC1CN2CCC1CC2)c1ccccc1` (stereo unspecified): the activity, negative = less viability is inactive: 1.37%.

As for `Fc1ccccc1NC1CCN(Cc2ccccc2)CC1`, the activity, negative = less viability was inactive: 0%. In the case of `Cc1ccc(C(=O)NCC2(N3CCCCC3)CCCCC2)o1`, the activity, negative = less viability was inactive: 8.01%.

For `Cc1ccc(NC2(C#N)CCN(Cc3ccccc3)CC2)cc1`, the activity, negative = less viability was inactive: 0.728%. Take `CCC(c1nnnn1C1CCCCC1)N1CCC(n2c(=O)[nH]c3ccccc32)CC1` (stereo unspecified): the activity, negative = less viability was inactive: 1.52%. As to `CC(=O)N(c1ccccc1)C1CCNCC1`, the activity, negative = less viability is inactive: 15%. On to `O=c1[nH]c2ccccc2n1C1CCN(C(c2ccnc3ccccc23)c2nnnn2C2CCCCC2)CC1` (stereo unspecified), for which the activity, negative = less viability was inactive: -22%.

In the case of `COc1cc(OC)cc(C(=O)NCC2(N3CCCCC3)CCCCC2)c1`, the activity, negative = less viability is inactive: 3.61%. Turning to `Cn1c(=O)[nH]cc(N(CCCl)CCCl)c1=O`, the activity, negative = less viability was inactive: 0.0667%.

Consider `CN(C)c1ccc(C(=O)NCC2(N3CCCCC3)CCCCC2)cc1`, for which the activity, negative = less viability is inactive: 5.8%.

Regarding `O=C(NCC1(N2CCCCC2)CCCCC1)c1ccco1`, the activity, negative = less viability is inactive: -1.9%.

In the case of `CC(C)(C)n1nnnc1C(c1ccnc2ccccc12)N1CCC(n2c(=O)[nH]c3ccccc32)CC1` (stereo unspecified), the activity, negative = less viability is inactive: -24.9%. For the compound `CCN1CCC(Nc2cccc(F)c2)CC1`, the activity, negative = less viability was inactive: 19.7%. Consider `COc1ccc(C(c2nnnn2C2CCCCC2)N2CCC(n3c(=O)[nH]c4ccccc43)CC2)cc1` (stereo unspecified), for which the activity, negative = less viability was inactive: 23.2%. The result for `Cc1ccccc1NC1(C#N)CCN(Cc2ccccc2)CC1` reads inactive: 13.4%.

`CCOC(=O)C(CC)C1=NC(C)(C)Cc2ccccc21.O=[N+]([O-])c1cc([N+](=O)[O-])c(O)c([N+](=O)[O-])c1` (stereo unspecified): the activity, negative = less viability was inactive: 7.77%. The result for `N#Cc1ccc(C(=O)NCC2(N3CCCCC3)CCCCC2)cc1` reads inactive: 2.19%; that for `CC(C)(C)OC(=O)N1CCC(N(C(=O)c2ccccc2)c2ccc(Cl)cc2)CC1`, inactive: -15.7%; that for `CN(C)C1(CNC(=O)c2cccc(C#N)c2)CCCCC1`, inactive: 3.18%. Then `Cc1cc(N(CCCl)CCCl)ccc1C=O`, with inactive: -5.56%; and `CCCN1CCC(Nc2cc(OC)cc(OC)c2)CC1`, with inactive: -20.6%; and `O=c1[nH]c2ccccc2n1C1CCN(C(c2ccccc2)c2nnnn2C2CCCC2)CC1` (stereo unspecified), with inactive: -19.8%. For the compound `c1ccc(CN2CCC(Nc3ccccc3)CC2)cc1`, the activity, negative = less viability is inactive: 6.95%. Take `COc1ccc(C(=O)NCC2(N3CCOCC3)CCCCC2)cc1OC`: the activity, negative = less viability is inactive: 2.29%. Then `COc1cc(C(=O)NCC2(N3CCOCC3)CCCCC2)cc(OC)c1C`, with inactive: 1.16%. Then `CCCCn1nnnc1C(c1ccccc1)N1CCC(n2c(=O)[nH]c3ccccc32)CC1` (stereo unspecified), with inactive: -11.5%.

`O=C(NCC1(N2CCOCC2)CCCCC1)c1cc(Br)ccc1Cl`: the activity, negative = less viability was inactive: -0.0262% [at 9.24 µM].

Take `O=c1[nH]c2ccccc2n1C1CCN(C(c2cccs2)c2nnnn2C2CCCC2)CC1` (stereo unspecified): the activity, negative = less viability was inactive: -29.8%.

Regarding `O=C(O)c1cccc(Nc2c([N+](=O)[O-])cc([N+](=O)[O-])cc2[N+](=O)[O-])c1`, the activity, negative = less viability is inactive: -2.55%.

For `O=C(OC1CN2CCC1CC2)C1c2ccccc2C=Cc2ccccc21` (stereo unspecified), the activity, negative = less viability was inactive: 2.02%. The result for `CCc1cc(C(=O)NCC2(N3CCCCC3)CCCCC2)sc1C` reads inactive: -7.07%; that for `CCCCn1nnnc1C(c1cccc(OC)c1OC)N1CCC(n2c(=O)[nH]c3ccccc32)CC1` (stereo unspecified), inactive: -26.6%. For the compound `COc1cccc(C(c2nnnn2C(C)(C)C)N2CCC(n3c(=O)[nH]c4ccccc43)CC2)c1OC` (stereo unspecified), the activity, negative = less viability is inactive: -9.54%.

With `CCOC(=O)N1CCC(Nc2ccc(C)cc2)CC1`, the activity, negative = less viability is inactive: 11.7%.

Turning to `N/C(=N\O)c1c(N)no[n+]1[O-]`, the activity, negative = less viability is inactive: 19.7%.

Turning to `CCC(c1nnnn1C(C)(C)C)N1CCC(n2c(=O)[nH]c3ccccc32)CC1` (stereo unspecified), the activity, negative = less viability was inactive: 20.1%. As to `O=C(NCC1(N2CCOCC2)CCCCC1)c1cc(F)c(F)cc1Cl`, the activity, negative = less viability is inactive: 7.29%. As for `CCN(CC)CCCNc1ccccc1[N+](=O)[O-].O=[N+]([O-])c1cc([N+](=O)[O-])c(O)c([N+](=O)[O-])c1`, the activity, negative = less viability was inactive: -24.6%. `COc1cc(OC)c(C(=O)NCC2(N(C)C)CCCCC2)cc1OC`: the activity, negative = less viability is inactive: 8.64%. As for `CC(C)c1ccc(NC2CCN(C(=O)OC(C)(C)C)CC2)cc1`, the activity, negative = less viability was inactive: -20.4%.

For `O=[N+]([O-])c1cc([N+](=O)[O-])c(OC2CCCCC2O)c([N+](=O)[O-])c1` (stereo unspecified), the activity, negative = less viability is inactive: -12.5%. Turning to `CN(C)c1cccc(C(=O)NCC2(N3CCCCC3)CCCCC2)c1`, the activity, negative = less viability is inactive: 26.3%. For `COc1ccc(CN(CCCl)CCCl)cc1Cl`, the activity, negative = less viability is inactive: 3.31%. `CCCOc1ccc(C(=O)NCC2(N(C)C)CCCCC2)cc1OC`: the activity, negative = less viability is inactive: -1.79%. Consider `Cc1ccc(C(=O)NCC2(N(C)C)CCCCC2)o1`, for which the activity, negative = less viability was inactive: 7.69%.

For `O=C(OC1CN2CCC1CC2)c1ccc([N+](=O)[O-])cc1` (stereo unspecified), the activity, negative = less viability is inactive: -1.87%. `O=C(NCC1(N2CCCCC2)CCCCC1)c1cncc(Br)c1`: the activity, negative = less viability was inactive: 0%. Then `CN1CCC(Nc2cccc(F)c2)CC1`, with inactive: 5.54%; and `N#CC1(Nc2ccccc2)CCN(CCc2ccccc2)CC1`, with inactive: 12.2%.

Take `O=c1[nH]c2ccccc2n1C1CCN(C(c2ccccc2OC(F)(F)F)c2nnnn2C2CCCC2)CC1` (stereo unspecified): the activity, negative = less viability is inactive: 3.89%. Consider `CCN1CCC(Nc2ccc(Cl)cc2)CC1`, for which the activity, negative = less viability is inactive: -1.11%. Then `O=C(NCC1(N2CCCCC2)CCCCC1)c1cccc([N+](=O)[O-])c1`, with inactive: -3.52%.
